Measured values taken from PMC9561763, “Semi-rational engineering membrane binding domain of L-amino acid deaminase from Proteus vulgaris for enhanced α-ketoisocaproate” (Frontiers in Microbiology, 2022).

system: CC(C)C[C@H](N)C(=O)O; assay: purified protein; conditions: 20 mM phosphate pH 7.5, 37 °C, 0-175 mM L-leucine (b36 says optimal temperature and pH), Triton X-100 purified enzyme

Question: What does the source list for “L-amino acid deaminase (L-AAD) from Proteus vulgaris (Proteus vulgaris; D340G)”?
Answer: Km: 16.01 mmol/L; kcat: 1.69 s⁻¹; kcat/Km: 106 M⁻¹ s⁻¹

Question: With “L-amino acid deaminase (L-AAD) from Proteus vulgaris (Proteus vulgaris; D340N)” as the substance, how does the Km read?
Answer: The Km was 9.87 mmol/L.

Question: And the kcat?
Answer: The kcat was 2.32 s⁻¹.

Question: What about the kcat/Km of the same substance?
Answer: Its kcat/Km is 235 M⁻¹ s⁻¹.

Question: Which Km does the source give for “L-amino acid deaminase (L-AAD) from Proteus vulgaris (Proteus vulgaris; L363N)” here?
Answer: Its Km is 15.87 mmol/L.

Question: What about the kcat of the same substance?
Answer: The kcat was 1.7 s⁻¹.

Question: What about the kcat/Km of the same substance?
Answer: Its kcat/Km is 107 M⁻¹ s⁻¹.
